Consider ten molecules from ChEMBL document CHEMBL1649335, “Discovery of {1-[4-(2-{hexahydropyrrolo[3,4-c]pyrrol-2(1H)-yl}-1H-benzimidazol-1-yl)piperidin-1-yl]cyclooctyl}methanol, systemically potent novel non-peptide agonist of nociceptin/orphanin FQ receptor as analgesic for the treatment of neuropathic pain: design, synthesis, and structure-activity …” (Bioorg Med Chem, 2010).

Protein sequences, listed by entry. Tags and fused reporters are not part of them. Lines headed by an entry give the natural chain unless they say otherwise; changes in a name come on top.
UniProt P41145: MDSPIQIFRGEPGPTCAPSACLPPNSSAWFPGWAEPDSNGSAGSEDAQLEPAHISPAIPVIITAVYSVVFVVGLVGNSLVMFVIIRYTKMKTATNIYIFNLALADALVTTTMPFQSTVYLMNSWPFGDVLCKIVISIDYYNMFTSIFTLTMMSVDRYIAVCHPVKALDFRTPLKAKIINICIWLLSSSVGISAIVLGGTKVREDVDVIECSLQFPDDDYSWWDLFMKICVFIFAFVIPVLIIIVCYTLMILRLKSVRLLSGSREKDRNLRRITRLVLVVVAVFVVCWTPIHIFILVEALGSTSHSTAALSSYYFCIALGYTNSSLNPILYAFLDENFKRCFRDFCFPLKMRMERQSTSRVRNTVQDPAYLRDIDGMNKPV
UniProt P41143, whole entry, looked up: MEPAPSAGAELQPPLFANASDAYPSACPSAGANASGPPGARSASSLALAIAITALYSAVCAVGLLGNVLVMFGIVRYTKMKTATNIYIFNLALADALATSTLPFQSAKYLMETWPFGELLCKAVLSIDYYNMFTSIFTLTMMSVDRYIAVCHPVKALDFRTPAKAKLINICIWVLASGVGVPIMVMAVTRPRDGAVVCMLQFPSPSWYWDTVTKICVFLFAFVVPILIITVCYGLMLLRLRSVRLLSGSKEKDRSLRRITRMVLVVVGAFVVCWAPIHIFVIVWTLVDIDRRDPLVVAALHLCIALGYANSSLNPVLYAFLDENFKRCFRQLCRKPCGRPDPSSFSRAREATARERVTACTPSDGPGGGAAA
UniProt P35372, whole entry, looked up: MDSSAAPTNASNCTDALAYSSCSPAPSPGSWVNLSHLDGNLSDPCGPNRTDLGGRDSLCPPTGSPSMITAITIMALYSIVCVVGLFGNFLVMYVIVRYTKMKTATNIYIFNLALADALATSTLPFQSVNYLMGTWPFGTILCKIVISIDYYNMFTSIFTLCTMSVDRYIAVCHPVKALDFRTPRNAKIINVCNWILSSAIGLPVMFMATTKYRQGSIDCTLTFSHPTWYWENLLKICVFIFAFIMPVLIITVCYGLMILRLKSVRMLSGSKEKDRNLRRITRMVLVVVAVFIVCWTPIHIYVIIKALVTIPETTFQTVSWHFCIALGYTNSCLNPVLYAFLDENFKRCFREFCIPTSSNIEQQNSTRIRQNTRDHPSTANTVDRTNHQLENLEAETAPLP
UniProt P41146: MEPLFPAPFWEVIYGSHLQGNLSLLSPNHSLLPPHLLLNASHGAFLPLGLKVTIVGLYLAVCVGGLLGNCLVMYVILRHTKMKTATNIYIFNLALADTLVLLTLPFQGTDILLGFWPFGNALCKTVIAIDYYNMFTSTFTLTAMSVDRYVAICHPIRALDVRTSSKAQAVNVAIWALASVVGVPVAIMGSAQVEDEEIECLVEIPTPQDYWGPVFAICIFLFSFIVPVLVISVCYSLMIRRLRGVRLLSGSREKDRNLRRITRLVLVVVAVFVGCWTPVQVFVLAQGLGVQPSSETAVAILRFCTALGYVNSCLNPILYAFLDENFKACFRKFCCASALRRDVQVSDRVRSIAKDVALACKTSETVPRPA

Broadly, the Ki is the dissociation constant of the complex between target and ligand, obtained from inhibition or displacement.

The target in assay [1] is Kappa-type opioid receptor (Homo sapiens, UniProt P41145). The following applies: hek293.
The target in assay [2] is Delta-type opioid receptor (Homo sapiens, UniProt P41143). As to conditions: cho-k1.
Assay [3] has as its target Mu-type opioid receptor (Homo sapiens, UniProt P35372). As to conditions: cho-k1.
The target of assay [4] is Nociceptin receptor (Homo sapiens, UniProt P41146). The following applies: hek293.

`CC1(C)CN(c2nc3ccccc3n2C2CCN(C3(CO)CCCCCCC3)CC2)CCN1`: the values for the Ki in assay [1], in assay [2] and in assay [3] were 0.387 µM, above 0.5 µM and above 0.45 µM, respectively.
With `OCC1(N2CCC(n3c(-c4ccc(F)c(Cl)c4)nc4ccccc43)CC2)CCCCCCC1`, the Ki in assay [3] worked out at 0.302 µM.
With `OCC1(N2CCC(n3c(N4CC5CNCC5C4)nc4ccccc43)CC2)CCCCCCC1` (configuration not stated), the Ki in assay [1] is above 0.577 µM; in assay [2] it was above 5 µM; in assay [3], 0.201 µM.
Molecule `OCC1(N2CCC(n3c(-c4ccc(F)c(Cl)c4)nc4ccccc43)CC2)CCCCC1` gave an inhibition constant Ki in assay [3] above 0.45 µM.
On to `COC(=O)C1(N2CCC(n3c(N4CCN(C)CC4)nc4ccccc43)CC2)CCCCCCC1`, for which the inhibitory constant (Ki) in assay [4] is 0.0805 µM; in assay [1], above 0.57 µM; in assay [2], 0.312 µM; in assay [3], above 0.45 µM.
On to `CC1CN(c2nc3ccccc3n2C2CCN(C3(CO)CCCCCCC3)CC2)CCN1` (configuration not stated), for which the inhibition constant (Ki) was 0.275 µM in assay [1], above 0.5 µM in assay [2] and above 0.45 µM in assay [3].
On to `CN1CCN(c2nc3ccccc3n2C2CCN(C3(CO)CCCCCCC3)CC2)CC1`, for which the Ki in assay [1] was found to be 0.333 µM; in assay [2], 0.679 µM; in assay [3], 0.229 µM.
`OCC1(N2CCC(n3c(N4CC5CN(Cc6ccccc6)CC5C4)nc4ccccc43)CC2)CCCCCCC1` (configuration not stated): the Ki worked out at 0.00656 µM in assay [4], 0.039 µM in assay [1], 0.258 µM in assay [2] and 0.128 µM in assay [3].
As for `CN1CCN(c2nc3ccccc3n2C2CCN(C3(C(=O)O)CCCCCCC3)CC2)CC1`, the inhibition constant (Ki) in assay [1] is above 0.57 µM; in assay [3] it was above 0.45 µM.
For `OCC1(N2CCC(n3c(-c4ccc(Cl)cc4)nc4ccccc43)CC2)CCCCCCC1`, the inhibition constant Ki in assay [1] was above 0.57 µM; in assay [2], 0.205 µM; in assay [3] it was 0.178 µM.
